Paper PMC7442650, “A machine learning-based chemoproteomic approach to identify drug targets and binding sites in complex proteomes” (Nature Communications, 2020)

Biological target: T1, FPR1 (FK506-binding protein 1, P20081) (Saccharomyces cerevisiae, UniProt P20081)
T1 construct: Cell lysates from at least three independent biological replicates were aliquoted in equivalent volumes containing 100 µg of proteome sample; endogenous in cells; host or cells: S. cerevisiae wild type (Euroscarf), cryo-milled lysate
T1 sequence (P20081 1-114): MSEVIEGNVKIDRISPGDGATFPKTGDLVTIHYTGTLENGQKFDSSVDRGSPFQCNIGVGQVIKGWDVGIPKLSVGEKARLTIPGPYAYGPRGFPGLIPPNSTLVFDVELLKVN
Assay: LiP-Quant, S. cerevisiae lysates (wild type)
Details: Yeast WT; FPR1 peptide _TGDLVTIH_

Question: With `CO[C@H]1C[C@@H]2CC[C@@H](C)[C@@](O)(O2)C(=O)C(=O)N2CCCC[C@H]2C(=O)O[C@H]([C@H](C)C[C@@H]2CC[C@@H](O)[C@H](OC)C2)CC(=O)[C@H](C)/C=C(\C)[C@@H](O)[C@@H](OC)C(=O)[C@H](C)C[C@H](C)/C=C/C=C/C=C/1C` [Rapamycin] as the molecule, how does the “LiP Score” value read?
Answer: Its value is 3.070.
